{"sequences": {"note": "Sequences of proteins named here, by UniProt entry; tags and fusion partners are left off.", "UniProt P50406, whole entry": "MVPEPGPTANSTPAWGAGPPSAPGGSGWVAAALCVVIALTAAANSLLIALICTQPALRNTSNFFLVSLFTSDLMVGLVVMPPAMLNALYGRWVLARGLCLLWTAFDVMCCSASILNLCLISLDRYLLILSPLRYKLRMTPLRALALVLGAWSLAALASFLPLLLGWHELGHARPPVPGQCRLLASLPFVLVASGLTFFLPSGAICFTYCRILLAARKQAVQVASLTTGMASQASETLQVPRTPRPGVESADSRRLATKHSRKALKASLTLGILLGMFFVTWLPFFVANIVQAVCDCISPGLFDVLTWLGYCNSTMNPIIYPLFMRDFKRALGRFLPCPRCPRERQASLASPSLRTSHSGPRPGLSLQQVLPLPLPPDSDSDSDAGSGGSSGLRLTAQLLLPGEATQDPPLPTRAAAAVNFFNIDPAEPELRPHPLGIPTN"}, "source": "patent US20070059364A1", "about": "“Active substance combination comprising a compound with npy receptor affinity and a compound with 5-ht6 receptor affinity” (Laboratorios Del Dr. Esteve S.A., priority 2003, published 2007)", "target": "recombinant human 5HT6 receptor (Homo sapiens, UniProt P50406)", "assay": "Binding to the 5HT6 serotonin receptor, [3H]-LSD, HEK-293 cell membranes", "conditions": "compounds of general formula (Id), Table 1d", "note": "Only a part of the results on these compounds is given; other tests are left out."}
{"substance": "6-Chloro-1-[1-(naphthalene-1-sulfonyl)-piperidin-4-yl]-1,4-dihydro-benzo[d][1,3]oxazin-2-one", "values": [{"measurement": "% Inhibition 10^−6 M", "value": 72.3, "unit": "%"}]}
